Measured values from patent US7358237B2, “Inducible nitric oxide synthase binds, S-nitrosylates, and activates cyclooxygenase-2” (The Johns Hopkins University, priority 2005, dated 2008).

Target: T1, iNOS and COX2 binding (Mus musculus, UniProt P29477+Q05769)
T1 construct: endogenous in cells; host or cells: RAW264.7 murine macrophages induced with LPS/IFNγ
Test: Co-immunoprecipitation of iNOS and COX2 in LPS/IFNγ-induced RAW264.7 cells
Type: cell-based, murine

CS(=O)(=O)c1ccc(-n2nc(C(F)(F)F)cc2-c2ccc(F)cc2)cc1 [SC58125] was tested, and the “Co-precipitation of iNOS and COX2” value was “unaffected”.
